Experimental findings from paper PMC8471380 (Molecules, 2021) are described below.

By UniProt entry, the sequences of proteins in these tests, tags left out. Residues count along the entry.
UniProt Q00960, 27-1482: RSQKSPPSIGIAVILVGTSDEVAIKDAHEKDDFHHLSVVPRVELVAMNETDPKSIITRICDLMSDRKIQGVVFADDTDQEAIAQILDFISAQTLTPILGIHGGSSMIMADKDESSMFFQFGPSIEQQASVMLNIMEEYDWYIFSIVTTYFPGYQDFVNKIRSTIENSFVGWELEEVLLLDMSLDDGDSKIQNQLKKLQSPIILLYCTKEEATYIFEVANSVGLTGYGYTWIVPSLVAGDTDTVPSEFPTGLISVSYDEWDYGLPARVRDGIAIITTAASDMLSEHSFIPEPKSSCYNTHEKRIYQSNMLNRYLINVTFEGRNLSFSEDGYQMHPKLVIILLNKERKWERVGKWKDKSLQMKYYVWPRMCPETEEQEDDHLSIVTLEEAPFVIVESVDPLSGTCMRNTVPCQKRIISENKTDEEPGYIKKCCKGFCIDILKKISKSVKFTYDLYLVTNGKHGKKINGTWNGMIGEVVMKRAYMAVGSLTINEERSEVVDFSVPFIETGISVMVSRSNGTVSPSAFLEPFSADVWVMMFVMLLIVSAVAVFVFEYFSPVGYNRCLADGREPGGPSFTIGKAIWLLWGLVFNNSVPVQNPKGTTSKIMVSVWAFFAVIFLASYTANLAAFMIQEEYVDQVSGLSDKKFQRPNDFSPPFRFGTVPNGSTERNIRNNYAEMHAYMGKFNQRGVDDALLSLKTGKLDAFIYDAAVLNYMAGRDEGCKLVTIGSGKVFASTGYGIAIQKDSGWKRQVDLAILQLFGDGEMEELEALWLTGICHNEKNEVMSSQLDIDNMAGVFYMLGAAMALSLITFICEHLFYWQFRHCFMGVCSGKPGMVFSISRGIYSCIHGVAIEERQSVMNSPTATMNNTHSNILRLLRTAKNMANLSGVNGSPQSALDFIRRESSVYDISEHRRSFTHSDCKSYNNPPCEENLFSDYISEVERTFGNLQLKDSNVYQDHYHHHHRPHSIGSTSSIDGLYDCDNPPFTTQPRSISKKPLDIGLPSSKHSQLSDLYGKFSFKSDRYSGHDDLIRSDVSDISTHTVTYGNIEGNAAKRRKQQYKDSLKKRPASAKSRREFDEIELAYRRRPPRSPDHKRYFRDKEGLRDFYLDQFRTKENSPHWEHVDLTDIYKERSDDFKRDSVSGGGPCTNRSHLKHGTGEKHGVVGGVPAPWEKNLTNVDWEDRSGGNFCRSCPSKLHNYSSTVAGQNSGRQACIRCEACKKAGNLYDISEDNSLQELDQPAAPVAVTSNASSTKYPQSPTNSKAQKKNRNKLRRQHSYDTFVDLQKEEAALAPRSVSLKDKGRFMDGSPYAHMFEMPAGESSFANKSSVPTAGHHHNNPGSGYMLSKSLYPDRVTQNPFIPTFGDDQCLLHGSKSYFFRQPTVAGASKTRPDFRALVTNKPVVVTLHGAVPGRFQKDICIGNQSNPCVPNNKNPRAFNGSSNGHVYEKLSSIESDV

SMILES strings stand for the structures.

The target of experiment [1] is T1, ifenprodil-binding site of NMDA receptor (NR2B subunit) (Rattus norvegicus, UniProt P35439+Q00960).
T1 construct: from tissue; host or cells: rat hippocampus membranes
The experiment is described as follows: Radioligand binding assay, [3H]ifenprodil displacement.

Experiment [2] concerns the target T2, MK-801-binding (intrachannel) site of NMDA receptor (Rattus norvegicus, UniProt P35439).
T2 construct: from tissue; host or cells: rat hippocampus membranes
The experiment is described as follows: Radioligand binding assay, [3H]MK-801 displacement.

On to `CC12CC3CC(C)(C1)CC(N)(C3)C2` [memantine, reference compound], for which the inhibition constant (Ki) in experiment [1] turned out to be 115 ± 6.5 µM; in experiment [2], 0.8 ± 0.1 µM.

Usually Ki stands for the dissociation constant of the complex between target and ligand, obtained from inhibition or displacement. Low readings indicate higher affinity, high ones lower affinity.
